# Data: PubChem BioAssay AID1508602 (The Scripps Research Institute Molecular Screening Center, 2020)
# Protein sequences, listed by entry. Tags and fused reporters are not part of them.
# UniProt Q8TDV0, whole entry: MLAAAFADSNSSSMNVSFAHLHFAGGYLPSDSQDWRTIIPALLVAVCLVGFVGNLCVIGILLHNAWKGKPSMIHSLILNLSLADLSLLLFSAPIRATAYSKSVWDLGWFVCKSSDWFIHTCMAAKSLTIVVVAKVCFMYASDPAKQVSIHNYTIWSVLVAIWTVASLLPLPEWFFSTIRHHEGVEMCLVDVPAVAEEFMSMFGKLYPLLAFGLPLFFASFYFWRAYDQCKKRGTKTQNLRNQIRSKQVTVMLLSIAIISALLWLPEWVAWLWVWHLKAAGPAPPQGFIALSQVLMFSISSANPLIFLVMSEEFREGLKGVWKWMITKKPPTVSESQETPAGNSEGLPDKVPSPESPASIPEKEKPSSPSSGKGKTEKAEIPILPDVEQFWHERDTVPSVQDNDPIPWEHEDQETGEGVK
# Only a part is listed here, and it is no random draw. Some of these compounds have results that are not shown, active ones among them. Calls of active or inactive are those of the source. Rule as the data show it: active = activation above about 4.9%; inactive = the rest.
# Target: G-protein coupled receptor 151 (Homo sapiens) (UniProt Q8TDV0)
# Assay: activates the human receptor GPR151, primary screen, cell-based, PathHunter beta-arrestin, luminescence (AID 1508602);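 also: 0% = median of compound wells and 100% = cells with positive control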
# Details: PathHunter beta-arrestin GPR151 cells, at 11.2 µM, active compounds read high
row,SMILES,activation
1,CC(=O)N(Cc1cccnc1)C1CCN(CCc2cccs2)CC1,inactive: -2.31%
2,O=C(c1ccco1)N(Cc1ccco1)C1CCN(CCc2cccs2)CC1,inactive: 0.325%
